Experiment: pH of a 1% solution of fertilizer components in water
Format: physicochemical
Details: 1% solution in water at room temperature

For Calcium Ammonium Nitrate, the pH was 6.

From patent US8419820B2, “Fast dissolving water-soluble fertilizer formulations and methods and uses thereof” (Everris International B.V., priority 2009, dated 2013)
